# Several values for one entry are separate records, joined by “and”; a condition that tells them apart may be missing. Identical values can stand only once. This is a selection; strong and weak results do not stand in their true shares. Activity calls are given as the source filed them.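 How the source made its calls: active means inhibition over about 50% at 20 µM in the single-dose screen (limit read from the data); inactive means the rest.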
# Protein sequences, listed by entry. Tags and fused reporters are not part of them.
# UniProt Q01196, whole entry, looked up: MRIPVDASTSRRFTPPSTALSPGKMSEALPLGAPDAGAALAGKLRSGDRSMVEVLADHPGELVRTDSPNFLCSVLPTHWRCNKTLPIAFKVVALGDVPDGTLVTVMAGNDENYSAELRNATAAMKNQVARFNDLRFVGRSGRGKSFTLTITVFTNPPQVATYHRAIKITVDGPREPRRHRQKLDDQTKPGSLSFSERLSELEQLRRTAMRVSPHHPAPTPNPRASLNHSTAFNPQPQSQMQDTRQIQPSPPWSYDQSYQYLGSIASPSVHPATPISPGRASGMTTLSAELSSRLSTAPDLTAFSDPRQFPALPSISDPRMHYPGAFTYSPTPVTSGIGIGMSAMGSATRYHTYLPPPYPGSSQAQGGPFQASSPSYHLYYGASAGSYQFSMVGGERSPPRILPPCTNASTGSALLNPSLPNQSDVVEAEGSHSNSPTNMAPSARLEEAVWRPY
# UniProt Q13951, whole entry, looked up: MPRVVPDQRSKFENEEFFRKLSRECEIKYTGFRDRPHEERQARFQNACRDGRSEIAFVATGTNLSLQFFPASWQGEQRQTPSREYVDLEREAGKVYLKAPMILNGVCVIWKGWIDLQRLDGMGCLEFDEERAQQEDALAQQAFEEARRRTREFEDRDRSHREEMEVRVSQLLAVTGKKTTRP
# Biological target: Runt-related transcription factor 1 (Homo sapiens) + Core-binding factor subunit beta (Homo sapiens) (UniProt Q01196+Q13951)
# Assay: inhibitors of RUNX1 Runt–CBFb binding, primary screen, biochemical, FRET, Cerulean-Runt, Venus-CBFb, uHTS (AID 1496);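 further: 0% = DMSO wells and 100% = excess unlabeled CBFb competitor control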
# Conditions: Cerulean-Runt/Venus-CBFb FRET ratio 530/480, 1 h; at 20 µM; hits give high values
# Summary of the method: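 Assay system: Cerulean-Runt domain fusion protein, energy donor; Signal: fluorescence energy transfer, 422 nm excitation, 530/480 nm emission; Timing: 1 h compound exposure, room temperature; Control set: unlabeled CBFb; Medium: Tris buffer pH 7.5 with salts and BSA; Compound: single test concentration of 20 µM, 1% DMSO final; Probe or stimulus: Venus-CBFb 100 nM.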
row,SMILES,inhibition
1,Cc1cc(SC(NC(=O)c2ccc(F)cc2)C(Cl)(Cl)Cl)ncn1 (stereo unspecified),active: 50.6%
2,CCOP(=O)(Nc1ccccc1)OCC,inactive: -2% and inactive: 1.7%
3,Cc1ccc(NP(=O)(Oc2ccccc2F)Oc2ccccc2F)nc1,inactive: 1.4%
4,O=P(Nc1nc2ccc(Cl)cc2s1)(c1ccccc1)c1ccccc1,inactive: -1.2%
5,CC(=O)Nc1ccc([As](=O)(O)O)cc1,inactive: 0.2%
6,O=C(O)c1ccccc1[As](=O)(O)O,inactive: 0.4%
7,Nc1cccc2ccc([As](=O)(O)O)cc12,inactive: 35.3%
8,CCN(N=Nc1nonc1N)c1nonc1N,inactive: 2.7%
9,CN1CCCC(OC(=O)C(c2ccccc2)c2ccccc2)C1 (stereo unspecified),inactive: 1.3%
10,Clc1ccc(Cl)c(NC2=NCC(CBr)S2)c1 (stereo unspecified),inactive: 3.2%
11,COc1ccccc1OP(=O)(Nc1ccc(C)cn1)Oc1ccccc1OC,inactive: -1.4%
12,Cc1ccc(OP(=O)(Nc2nccs2)Oc2ccc(C)cc2)cc1,inactive: -1%
13,Cc1ccc(N/C(=N/P(=O)(N2CCOCC2)N2CCOCC2)N2CCOCC2)cc1,inactive: -0.2%
14,NC(=O)c1cc([N+](=O)[O-])cc([N+](=O)[O-])c1N,inactive: -1.1%
15,Oc1ccccc1CNc1ccccn1,inactive: -1.9%
16,O=C(NC(Sc1ccncn1)C(Cl)(Cl)Cl)c1ccccc1 (stereo unspecified),inactive: 13.8%
17,Cc1c2non([O-])c-2c(C)[n+](=O)[n+]1[O-],inactive: 12.9%
18,Nc1cc(N)c2nonc2c1[N+](=O)[O-],inactive: -0.1%
19,CC(C)CC(=O)NC(Sc1ccc(Cl)cc1)C(Cl)(Cl)Cl (stereo unspecified),inactive: -0.1%
20,Cc1ccc(NP(=O)(Oc2ccccc2)Oc2ccccc2)nc1,inactive: 0.8%
21,CCc1nc2c(n1)c1c(non1O)c1c2no[n+]1[O-],inactive: -0.9%
22,CC(=O)N1C2C3N(C(C)=O)C1C1N(C(C)=O)C(C(N1C(C)=O)N3C(C)=O)N2C(C)=O,inactive: 0.5%

row,SMILES,inhibition
1,O=[N+]([O-])c1cccc2n[nH]nc12,inactive: 3.6%
2,COc1ccc(C2=NCC(CBr)S2)cc1 (stereo unspecified),inactive: 7.3%
3,CC1CCN(C(=O)Oc2c(Cl)cc(Cl)c3cccnc23)CC1,inactive: -3.3%
4,CC(C)=N/N=C(\N)N[N+](=O)[O-],inactive: 0.9%
5,CN(C)C(=O)OCCc1n(C)cc[n+]1C,inactive: -0.5%
6,CCN(/C(=N/P(=O)(N1CCOCC1)N1CCOCC1)N1CCOCC1)c1ccc(OC)cc1,inactive: 2.9%
7,Nc1ccc([As](=O)(O)c2ccc(N)cc2)cc1,inactive: 1.4%
8,C[N+]1=C2C=CC=CC=C2SC12C([N+](=O)[O-])=CC([N+](=O)[O-])=C[C-]2[N+](=O)[O-] (stereo unspecified),inactive: 31.3%
9,O=C(Nc1cc([As](=O)(O)O)ccc1O)c1ccccc1,inactive: 4.5%
10,O=C(O)CNc1ccc([As](=O)(O)O)cc1,inactive: 0.2%
11,O=[N+]([O-])c1cccc(NC2=NCC(CBr)S2)c1 (stereo unspecified),inactive: -0.7%
12,O=[N+]([O-])c1ncn(CCn2ncnc2[N+](=O)[O-])n1,inactive: 1.4%
13,CC(C)(C)C(=O)NC(Sc1ccncn1)C(Cl)(Cl)Cl (stereo unspecified),inactive: 17.1%
14,O=P(Nc1nc2ccccc2s1)(c1ccccc1)c1ccccc1,inactive: 0.5%
15,C[C@H]1OP(=O)(Oc2ccccc2)[C@H](O)[C@H](O)[C@H]1N=[N+]=[N-] (stereo partly specified),inactive: -1.1%
16,O=P(Nc1ccccn1)(c1ccc(Br)cc1)c1ccc(Br)cc1,inactive: 0.4%
17,O=C(OC1CN2CCC1CC2)c1cccc(Cl)c1 (stereo unspecified),inactive: -1.8%
18,C(Cc1nn[nH]n1)Cc1nn[nH]n1,inactive: -0.3%
19,Nc1ccc([As](=O)(O)c2ccc([N+](=O)[O-])cc2)cc1,inactive: 2.4%
20,O=[As](O)(c1ccccc1)c1ccc(O)cc1,inactive: -0.4%
21,O=[N+]([O-])c1ncn(CCn2cnc([N+](=O)[O-])n2)n1,inactive: -1.6%
22,CC(=O)NC(SC(=S)N(C)C)C(Cl)(Cl)Cl (stereo unspecified),inactive: 4.7%

row,SMILES,inhibition
1,c1nnnn1CCn1cnnn1,inactive: 0.9%
2,O=P(Nc1nccs1)(c1ccccc1)c1ccccc1,inactive: 0.5%
3,CC(C)C(=O)NC(Sc1ccccc1)C(Cl)(Cl)Cl (stereo unspecified),inactive: 0.4%
4,CC(C)(C)C(=O)NC(Sc1ccccc1)C(Cl)(Cl)Cl (stereo unspecified),inactive: 0.3%
5,O=P1(Nc2nc3ccc(Cl)cc3s2)COc2ccccc2O1 (stereo unspecified),inactive: 1.2%
6,CCOc1ccc(C2=NCC(CBr)S2)cc1 (stereo unspecified),inactive: 0.3%
7,CC(=O)Nc1ccc([As](=O)(O)O)c(O)c1,inactive: 1.4%
8,CC(=O)Nc1ccc(Oc2c([N+](=O)[O-])cc([N+](=O)[O-])cc2[N+](=O)[O-])cc1,inactive: 2.3%
9,C[C@H]1OP(=O)(Oc2ccccc2)C[C@@H]2O[C@@H]21 (stereo partly specified),inactive: 1.5%
10,C[C@@H]1C=CCP(=O)(Oc2ccccc2)O1 (stereo partly specified),inactive: 0.3%
11,c1ccc(-c2nn[nH]n2)c(-c2nn[nH]n2)c1,inactive: 1.3%
12,CCOC(=O)NC(Sc1ccccc1)C(Cl)(Cl)Cl (stereo unspecified),inactive: 5.7%
13,Cc1ccc(NP(=O)(Oc2cccc(C)c2)Oc2cccc(C)c2)nc1,inactive: -1.2%
14,O=C(NC1CCS(=O)(=O)C1)NP(=S)(Oc1ccccc1)Oc1ccccc1 (stereo unspecified),inactive: -0.5%
15,CCNC(=S)/N=C(\N)N[N+](=O)[O-],inactive: 1.3%
16,Cc1ccccc1OP(=O)(Nc1ccccn1)Oc1ccccc1C,inactive: -0.2%
17,O=c1c2cc([N+](=O)[O-])ccc2[nH]c2c([N+](=O)[O-])cc([N+](=O)[O-])cc12,inactive: -3.1%
18,CN(C)C(=O)Oc1noc2ccccc12,inactive: 2.3%
19,CCC(=O)N1C2C3N(C(=O)CC)C1C1N(C(=O)CC)C(C(N1C(=O)CC)N3C(=O)CC)N2C(=O)CC,inactive: 0.1%
20,COC(=O)c1cc2c(s1)N=C(c1ccccc1)N(C)P2(=O)N1CCOCC1 (stereo unspecified),inactive: -1.9%
21,Cc1ccc(OP(=O)(Nc2ccccn2)Oc2ccc(C)cc2)cc1,inactive: -2%
22,CC(=O)NC(SC(=S)N(CC(C)C)CC(C)C)C(Cl)(Cl)Cl (stereo unspecified),inactive: 2.5%

# Reference: PubChem BioAssay AID1496 (Sanford-Burnham Center for Chemical Genomics, 2009)
